## Yeast mating assay B: variants of the scFv Ab-14

Binding partner: SARS-CoV-2 spike HR2 peptide, sequence PDVDLGDISGINAS.

Parent scFv Ab-14: VH joined to VL by three GGGGS repeats. Changes lie in the heavy chain CDRs alone.
VH: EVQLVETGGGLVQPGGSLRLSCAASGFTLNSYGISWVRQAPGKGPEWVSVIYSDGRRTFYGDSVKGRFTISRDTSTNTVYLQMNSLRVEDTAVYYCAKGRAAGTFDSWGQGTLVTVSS
VL: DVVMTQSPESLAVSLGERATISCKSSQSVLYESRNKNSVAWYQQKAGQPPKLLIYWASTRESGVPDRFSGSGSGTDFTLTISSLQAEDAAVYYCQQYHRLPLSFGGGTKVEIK

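The starting antibody came from a phage panning campaign against this peptide. This is the validation round: designs drawn from the data on random variants, tested in the same kind of assay. Group labels follow the data file (En: ensemble of fine-tuned language models; HC: hill climbing; Gen: genetic algorithm; Gibbs: Gibbs sampling; a sequence that several methods proposed may carry one label only). AlphaSeq pools MATa yeast showing the antibodies with MATalpha yeast showing the peptide. Binding brings cells together so that they mate, and sequencing counts the barcode pairs among the diploids. Each replicate has its own calibration line, from reference interactions of the BCL2 family. The assay was run in six technical replicates.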

The parent's heavy chain CDRs are GFTLNSYGIS, VIYSDGRRTFYGDSVK, GRAAGTFDS; each variant's own CDRs replace them letter for letter. Variants here have more than six changes. Scale: log10 of Kd in nM, estimated from mating counts; low values are strong binders. An entry "nd" has no value in the source: the pair was not observed among the diploids in that replicate. This suggests poor binding but is not conclusive. Three control strains display no target. For all heavy chain designs, 1% of the pairings with them gave a signal, with a median of 2.08 and one signal in twenty below 0.84, so weak values seen in few replicates may be background. The authors' rule: three or more of the six replicates give a measured affinity, fewer mean a poor binder. The parent sequence was in this pool as ten entries: three were never detected, three once, and four in most replicates, with averages from 0.34 to 2.37. The range of this assay differs from that of the first round, and the authors advise against merging the two.

For GFDLNEYGIS | VIYADGRRTAYADSVK | GTNAGTFDV [En_Gen], the assay gave nd, nd, nd, nd, nd, nd.
For GFGLGEYGIS | VIYADGRRTFYKDDVK | GHFIVAGVD [En_Gibbs], the assay gave nd, nd, nd, nd, nd, nd.
For GFDINEYGIS | VIYADGRRTFYADSVK | GNTAGTFDV [En_HC], the assay gave 0.57, 1.60, nd, 0.44, 0.80, nd.
For GFDLEEYGIS | VIYADGMRQYYVNSVK | GTANDFDML [En_Gibbs], the assay gave nd, nd, nd, nd, nd, nd.
For GFNLSEYGIS | VIYADGMRSNYADSVK | GHKGNFFID [En_Gibbs], the assay gave nd, nd, nd, nd, nd, nd.
For GFDLESYGIS | VIYADGSRTAYADSVK | GNVAGTFDI [En_HC], the assay gave -0.23, 0.19, -0.66, -0.48, -0.27, -0.36.
For GFDLNEYGIS | VIYADGRRTFYTDNVK | GQNAGTFDK [En_HC], the assay gave -0.54, -0.20, -0.70, -0.17, -0.81, 0.45.
For GFDLNEYGIS | VIYADGRRTFYADSVK | GEQAGTFDI [En_HC], the assay gave 0.32, 0.99, 1.10, 0.75, 0.77, 0.51.
For GKKLDEYGIS | VIYADGVRSHYAESVK | GQHGTYGVA [En_Gibbs], the assay gave nd, nd, nd, nd, nd, nd.
For GFDLEDYGIS | VIYADGVRTAYSDSVK | GNVAGTFDV [En_Gen], the assay gave -0.27, -0.91, -0.46, -0.73, -0.66, -0.38.
For GFDLDEYGIS | VIYADGQRTAYSDSVK | GNEAGTFDL [En_Gen], the assay gave 0.62, -0.20, -0.03, -0.11, -0.32, 0.12.
For GFDLEDYGIS | VIYADGVRTAYADSVK | GNVAGTFDV [En_Gen], the assay gave -0.41, -0.23, -0.63, -0.72, -0.59, -0.26.
For GFDLNEYGIS | VIYADGKRTAYSDSVK | GNEAGTFDQ [En_Gen], the assay gave -0.01, -0.25, -0.25, -0.55, -0.39, -0.22.
For GFDLNEYGIS | VIYADGLRTAYSDSVK | GNTAGTFDV [En_Gen], the assay gave -0.07, -0.73, 0.19, -0.33, -0.58, 0.01.
For GFDLNEYGIS | VIYADGRRTAYSDSVK | GNQAGTFDV [En_Gen], the assay gave -0.39, -0.46, -0.66, -0.72, -0.37, -0.66.
For GFDLNEYGIS | VIYADGRRTAYSDSVK | GTNAGFFDS [En_HC], the assay gave nd, nd, nd, 1.27, nd, nd.
For GFNLDEYGIS | VIYADGRRTAYAESVK | NSNMSGMVT [En_Gibbs], the assay gave -0.98, -1.84, -0.42, -1.34, -1.39, -0.56.
For GFDLNEYGIS | VIYADGMRTVYADSVK | GSNAGTFDI [En_Gen], the assay gave -0.63, -0.66, -0.94, -1.35, -1.20, -0.66.
For GFDLDEYGIS | VIYADGRRTAYADDVK | GENAGTFDL [En_Gen], the assay gave -0.18, -0.03, -0.73, -0.07, -0.25, -0.27.
For GFDLDEYGIS | VIYADGMRNAYTADVK | GGKSEDFFT [En_Gibbs], the assay gave nd, nd, nd, nd, nd, nd.
For GFDLDEYGIS | VIYADGRRTFYQDSVK | GEVAGTFDS [En_HC], the assay gave -0.77, -0.44, -0.80, -0.76, -0.79, -0.50.
For GEDLNEYGIS | VIYADGQRTYYDESVK | GKFAGSFFH [En_Gibbs], the assay gave nd, nd, nd, nd, nd, nd.
For GFNLNEVGIS | VIYADGSRSAYVDNVK | GGVVAVDFV [En_Gibbs], the assay gave nd, nd, nd, nd, nd, nd.
For GFDLDEYGIS | VIYADGMRTFYADSVK | GNIAGTFLD [En_HC], the assay gave -0.11, -0.46, -0.48, -0.33, -0.63, -0.21.
For GFTLDEYGIS | VIYADGRRTAYTDSVK | GGNAGTFDV [En_HC], the assay gave -0.35, -0.37, -0.57, -0.56, -0.53, -0.38.
For GKSLDEYGIS | VIYADGMRTFYANTVK | GEDGGFYNQ [En_Gibbs], the assay gave nd, nd, nd, nd, nd, nd.
For GFDLNEYGIS | VIYADGMRTAYADSVK | GEIAGTFDT [En_Gen], the assay gave -0.15, 0.24, -0.13, -0.18, -0.11, -0.21.
For GFDLNEYGIS | VIYADGRRTAYADSVK | GQAAGTFTL [En_HC], the assay gave -0.54, 0.03, -0.58, -1.09, -1.46, -0.63.
For GFDLNEYGIS | VIYADGMRTAYSDSVK | GNEAGTFDT [En_Gen], the assay gave 0.05, -0.05, 0.12, -0.47, -0.32, -0.16.
For EFNLNEFGIS | VIYADGKRTAYVPNVK | GHLGGHFDM [En_Gibbs], the assay gave nd, nd, nd, nd, nd, nd.
For GFNLDEYGIS | VIYADGYRRMYIDAVK | GTNSGFGGT [En_Gibbs], the assay gave nd, nd, nd, nd, nd, nd.
For GFSLDEYGIS | VIYADGIRVSYTDQVK | GQTPSLNII [En_Gibbs], the assay gave nd, nd, nd, nd, nd, nd.
For GFDLNEYGIS | VIYADGQRTFYTDSVK | GTFAGTFDV [En_HC], the assay gave -0.65, -0.74, -1.01, -0.80, -1.25, -0.55.
For GFDLNEYGIS | VIYADGMRTAYIDSVK | GNTAGTFDQ [En_Gen], the assay gave nd, nd, nd, nd, nd, nd.
For GFDLNEYGIS | VIYADGMRTFYADSVK | GENAGTFDQ [En_Gen], the assay gave -0.62, 0.09, -0.05, -0.52, -0.40, -0.14.
For GFDLNEYGIS | VIYADGRRTAYIDSVK | GHAAGTFDK [En_HC], the assay gave -0.22, -0.61, 0.19, -0.84, -0.63, -0.01.

Again, the first 4 entries without any signal:

CDR-H1,CDR-H2,CDR-H3,group,"replicates, log10 nM"
GFDLNEYGIS,VIYADGRRTAYADSVK,GTNAGTFDV,En_Gen,"nd, nd, nd, nd, nd, nd"
GFGLGEYGIS,VIYADGRRTFYKDDVK,GHFIVAGVD,En_Gibbs,"nd, nd, nd, nd, nd, nd"
GFDLEEYGIS,VIYADGMRQYYVNSVK,GTANDFDML,En_Gibbs,"nd, nd, nd, nd, nd, nd"
GFNLSEYGIS,VIYADGMRSNYADSVK,GHKGNFFID,En_Gibbs,"nd, nd, nd, nd, nd, nd"

Values reported by Li et al. 2023, doi:10.1038/s41467-023-39022-2 (FLAb copy).